Laboratory results taken from article PMC4980666, “N-acylhydrazone inhibitors of influenza virus PA endonuclease with versatile metal binding modes” (Scientific Reports, 2016).

System: influenza A virus (strain A/PR/8/34)
Type: cell-based

## NC(=O)c1ncn([C@@H]2O[C@H](CO)[C@@H](O)[C@H]2O)n1 [Ribavirin, reference compound]
  SI (selectivity index, ratio between CC50 and EC90): >24
